Test results: PubChem BioAssay AID488857 (Sanford-Burnham Center for Chemical Genomics, 2010)
Only a part is listed here, and it is no random draw. Active and inactive are the calls of the source.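 Rule for the calls: active = mean inhibition over duplicate tests at 10 µM above 50%; inactive = the rest.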

Assay: ASC/caspase-1 reporter retest in S. cerevisiae at one dose, specificity check for NALP1 project (AID 488857)
Conditions: S. cerevisiae ASC/Caspase-1, beta-galactosidase luminescence, 24 h; at 10 µM; stronger effect = higher value

Row | SMILES | inhibition
1 | CC(=O)NC(SC(=S)N(C)C)C(Cl)(Cl)Cl (stereo not drawn) | active: 61.8%
2 | O=C(OC1CN2CCC1CC2)C12CC3CC(CC(C3)C1)C2 (stereo not drawn) | inactive: 40.6%
3 | O=[N+]([O-])c1cc([N+](=O)[O-])c(-c2ccn[nH]2)s1 | active: 61.1%
